Binding of CDR-mutated scFvs to a peptide of the spike HR2 region

Data: MIT Lincoln Laboratory AlphaSeq set, Engelhart et al. 2022, doi:10.1038/s41597-022-01779-4, as distributed in FLAb.

Target peptide (SARS-CoV-2 spike, HR2 region): PDVDLGDISGINAS

Each scFv is VH, three GGGGS repeats, VL, as in the parent Ab-14, and differs from it in the CDRs of the light chain only.
VH: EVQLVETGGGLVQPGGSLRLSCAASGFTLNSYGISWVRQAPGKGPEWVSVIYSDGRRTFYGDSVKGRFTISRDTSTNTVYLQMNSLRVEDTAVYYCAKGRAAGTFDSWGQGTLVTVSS
VL: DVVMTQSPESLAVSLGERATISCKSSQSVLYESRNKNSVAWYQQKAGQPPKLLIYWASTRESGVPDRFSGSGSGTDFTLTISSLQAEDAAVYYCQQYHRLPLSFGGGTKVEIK

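Variants in AAYL50 differ from the parent at up to three CDR positions; double and triple changes were sampled at random. The assay is AlphaSeq: two haploid yeast populations carry antibody and antigen on their surface. The frequency of each diploid, read from paired DNA barcodes, reflects how well the two displayed proteins bind. Read counts were normalised to the haploid input and turned into Kd by a linear fit to BCL2-family pairs of known affinity, for each replicate. Each pool was mated in three replicate cultures.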

Changes read parent residue, position, new residue, counted from the first residue of the VL shown.
Numbers give log10(Kd / nM), so 0 is 1 nM and 3 is 1 µM. Smaller is tighter.
The mean shown is taken over the replicates in which the pair was detected.
Where no diploid with the target was found in that replicate, the entry reads "n.d.": below detection, most likely a poor binder, though not proof of it.
Empty control strains, which show no peptide, gave a signal in 18% of pairings with library AAYL50; the median was 4.19 and 95% of these signals were weaker than 2.99. No background was subtracted. Also given: how often the same scFv was detected with the empty control strains, with their mean in brackets.

changes	replicates, log10 nM	mean log10 Kd (nM)	empty controls
R34W+W56L+L100Q	n.d. n.d. n.d.	n.d.	0 of 9
S25D+T59Y+R99F	5.29 3.38 3.60	4.09	4 of 9 (4.55)
K36M+Y97F+H98F	0.57 0.78 0.60	0.65	4 of 9 (4.28)
Y31K+R34A+Y97H	2.09 1.68 1.83	1.87	0 of 9
W56F+L100K+P101T	1.28 1.28 1.31	1.29	3 of 9 (3.56)
R60N+S62P+R99K	n.d. 2.25 n.d.	2.25	0 of 9
N35Y+H98M+S103Y	2.03 1.94 2.29	2.09	0 of 9
S25L+E32L+K36Y	n.d. n.d. n.d.	n.d.	0 of 9
K24A+V29S+H98Q	5.38 n.d. n.d.	5.38	0 of 9
Y31T+N37I+A57E	1.40 1.37 1.42	1.40	1 of 9 (3.85)
S38V+A57P+T59P	4.24 n.d. 3.69	3.96	2 of 9 (4.92)
L30A+N35V+E61N	0.95 1.11 1.07	1.04	4 of 9 (4.68)
R34K+A57Q+L102Q	4.82 4.44 4.88	4.71	4 of 9 (4.04)
S28K+S33V+Q96V	6.46 4.71 n.d.	5.59	3 of 9 (4.54)
S28H+V39P+R99E	n.d. n.d. n.d.	n.d.	0 of 9
R34F+H98V+L100P	0.37 0.68 0.63	0.56	2 of 9 (4.58)
S28C+Q95A+R99M	3.94 n.d. 4.60	4.27	5 of 9 (4.47)
W56H+A57F+H98E	2.26 2.33 2.09	2.22	2 of 9 (4.12)
N35Y+K36N+S103H	n.d. n.d. n.d.	n.d.	0 of 9
S25Q+L100T	3.31 n.d. n.d.	3.31	0 of 9
V29W+Y97V+L102R	1.35 1.51 1.39	1.42	1 of 9 (3.29)
Y31G+W56A+S58M	-0.06 0.31 0.09	0.11	1 of 9 (4.68)
S58D+R99S+P101L	0.88 1.23 0.98	1.03	0 of 9
S25Q+Y31K+Q96N	2.71 2.98 3.13	2.94	2 of 9 (4.04)
S28N+E61K+Q96R	n.d. 5.01 4.49	4.75	3 of 9 (4.10)
K36M+N37K+R99Y	5.10 4.14 3.51	4.25	6 of 9 (4.21)
V29N+T59Q+P101F	2.24 1.85 1.31	1.80	0 of 9
L30C+Y31K+R99W	2.33 2.42 2.30	2.35	4 of 9 (3.84)
S33R+Q96D+L100G	n.d. n.d. n.d.	n.d.	0 of 9
K24M+A40D+S62T	n.d. n.d. n.d.	n.d.	0 of 9
S25M+Y31A+E32L	-0.01 0.38 0.39	0.25	0 of 9
R34Y+S58F+H98D	2.56 2.35 2.26	2.39	5 of 9 (4.92)
L100T	1.37 1.74 1.63	1.58	2 of 9 (4.52)
Q27C+L100Q	n.d. n.d. n.d.	n.d.	0 of 9
Q27A+Y31F+E32V	2.55 3.40 2.49	2.81	0 of 9
S33P+N37W+R99C	0.53 0.76 0.93	0.74	2 of 9 (3.76)
S25P+Q95H+H98W	n.d. n.d. n.d.	n.d.	0 of 9
K24R+N35F+S103L	2.29 1.09 2.82	2.07	0 of 9
A57Q+E61M+L100V	1.91 1.97 1.99	1.96	7 of 9 (4.76)
Y31K+N35Y+P101L	1.50 1.48 1.61	1.53	5 of 9 (4.24)
Y31V+S33M+V39M	5.54 n.d. n.d.	5.54	2 of 9 (3.23)
A57G+S62Y	1.54 1.53 1.44	1.51	4 of 9 (4.29)
Y31R+Q95K+S103R	2.38 1.83 2.10	2.10	2 of 9 (4.55)
Y31C+S38W	n.d. n.d. n.d.	n.d.	0 of 9

A selection of 7 entries from above:

{"changes": "L30A+N35V+E61N", "replicates, log10 nM": "0.95 1.11 1.07", "mean log10 Kd (nM)": "1.04", "empty controls": "4 of 9 (4.68)"}
{"changes": "R34K+A57Q+L102Q", "replicates, log10 nM": "4.82 4.44 4.88", "mean log10 Kd (nM)": "4.71", "empty controls": "4 of 9 (4.04)"}
{"changes": "S28N+E61K+Q96R", "replicates, log10 nM": "n.d. 5.01 4.49", "mean log10 Kd (nM)": "4.75", "empty controls": "3 of 9 (4.10)"}
{"changes": "S25P+Q95H+H98W", "replicates, log10 nM": "n.d. n.d. n.d.", "mean log10 Kd (nM)": "n.d.", "empty controls": "0 of 9"}
{"changes": "R60N+S62P+R99K", "replicates, log10 nM": "n.d. 2.25 n.d.", "mean log10 Kd (nM)": "2.25", "empty controls": "0 of 9"}
{"changes": "S58D+R99S+P101L", "replicates, log10 nM": "0.88 1.23 0.98", "mean log10 Kd (nM)": "1.03", "empty controls": "0 of 9"}
{"changes": "Y31G+W56A+S58M", "replicates, log10 nM": "-0.06 0.31 0.09", "mean log10 Kd (nM)": "0.11", "empty controls": "1 of 9 (4.68)"}